Measurements taken from ChEMBL document CHEMBL1154826, “Dual-action lipophilic iminosugar improves glycemic control in obese rodents by reduction of visceral glycosphingolipids and buffering of carbohydrate assimilation” (J Med Chem, 2010).

Protein sequences, listed by entry. Tags and fused reporters are not part of them. Lines headed by an entry give the natural chain unless they say otherwise; changes in a name come on top.
UniProt P35573: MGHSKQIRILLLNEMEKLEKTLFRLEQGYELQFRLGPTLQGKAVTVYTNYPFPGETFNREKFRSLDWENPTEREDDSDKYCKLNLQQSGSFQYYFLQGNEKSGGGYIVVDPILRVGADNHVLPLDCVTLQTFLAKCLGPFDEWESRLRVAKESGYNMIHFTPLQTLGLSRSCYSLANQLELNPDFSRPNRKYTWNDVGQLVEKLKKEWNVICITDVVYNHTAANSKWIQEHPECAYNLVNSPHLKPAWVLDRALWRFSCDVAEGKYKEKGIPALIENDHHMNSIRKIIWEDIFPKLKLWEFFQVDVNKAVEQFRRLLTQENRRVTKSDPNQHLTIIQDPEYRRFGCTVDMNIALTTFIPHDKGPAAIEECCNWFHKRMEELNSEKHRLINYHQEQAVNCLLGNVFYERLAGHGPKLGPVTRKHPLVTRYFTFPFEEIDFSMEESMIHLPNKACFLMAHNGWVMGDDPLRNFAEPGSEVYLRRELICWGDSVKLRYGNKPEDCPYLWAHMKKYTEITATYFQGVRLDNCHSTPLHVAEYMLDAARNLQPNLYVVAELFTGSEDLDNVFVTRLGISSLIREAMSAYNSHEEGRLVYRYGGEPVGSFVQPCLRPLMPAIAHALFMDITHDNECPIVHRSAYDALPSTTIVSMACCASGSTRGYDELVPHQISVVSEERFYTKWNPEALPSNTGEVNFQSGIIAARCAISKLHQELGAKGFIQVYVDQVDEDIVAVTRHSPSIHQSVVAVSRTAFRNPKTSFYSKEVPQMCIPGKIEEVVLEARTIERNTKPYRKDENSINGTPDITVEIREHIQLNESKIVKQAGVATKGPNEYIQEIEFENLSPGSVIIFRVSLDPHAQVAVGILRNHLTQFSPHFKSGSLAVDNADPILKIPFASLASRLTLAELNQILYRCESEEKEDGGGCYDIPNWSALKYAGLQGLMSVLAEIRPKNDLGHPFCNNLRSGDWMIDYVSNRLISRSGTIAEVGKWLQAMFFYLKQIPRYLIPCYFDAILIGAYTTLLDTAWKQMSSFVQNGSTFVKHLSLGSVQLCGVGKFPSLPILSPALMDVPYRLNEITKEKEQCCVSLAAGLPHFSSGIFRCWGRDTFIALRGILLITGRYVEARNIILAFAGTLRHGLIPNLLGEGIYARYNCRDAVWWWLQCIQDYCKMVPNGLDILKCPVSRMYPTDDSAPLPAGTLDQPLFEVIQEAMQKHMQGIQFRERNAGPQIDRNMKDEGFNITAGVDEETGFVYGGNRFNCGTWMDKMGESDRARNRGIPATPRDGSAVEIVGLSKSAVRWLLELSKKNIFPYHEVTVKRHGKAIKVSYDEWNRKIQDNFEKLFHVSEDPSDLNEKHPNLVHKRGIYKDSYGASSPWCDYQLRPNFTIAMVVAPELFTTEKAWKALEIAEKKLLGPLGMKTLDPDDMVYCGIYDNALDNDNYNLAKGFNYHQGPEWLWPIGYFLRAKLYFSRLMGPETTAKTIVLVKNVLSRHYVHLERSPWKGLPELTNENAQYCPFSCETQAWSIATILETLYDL
UniProt O43451: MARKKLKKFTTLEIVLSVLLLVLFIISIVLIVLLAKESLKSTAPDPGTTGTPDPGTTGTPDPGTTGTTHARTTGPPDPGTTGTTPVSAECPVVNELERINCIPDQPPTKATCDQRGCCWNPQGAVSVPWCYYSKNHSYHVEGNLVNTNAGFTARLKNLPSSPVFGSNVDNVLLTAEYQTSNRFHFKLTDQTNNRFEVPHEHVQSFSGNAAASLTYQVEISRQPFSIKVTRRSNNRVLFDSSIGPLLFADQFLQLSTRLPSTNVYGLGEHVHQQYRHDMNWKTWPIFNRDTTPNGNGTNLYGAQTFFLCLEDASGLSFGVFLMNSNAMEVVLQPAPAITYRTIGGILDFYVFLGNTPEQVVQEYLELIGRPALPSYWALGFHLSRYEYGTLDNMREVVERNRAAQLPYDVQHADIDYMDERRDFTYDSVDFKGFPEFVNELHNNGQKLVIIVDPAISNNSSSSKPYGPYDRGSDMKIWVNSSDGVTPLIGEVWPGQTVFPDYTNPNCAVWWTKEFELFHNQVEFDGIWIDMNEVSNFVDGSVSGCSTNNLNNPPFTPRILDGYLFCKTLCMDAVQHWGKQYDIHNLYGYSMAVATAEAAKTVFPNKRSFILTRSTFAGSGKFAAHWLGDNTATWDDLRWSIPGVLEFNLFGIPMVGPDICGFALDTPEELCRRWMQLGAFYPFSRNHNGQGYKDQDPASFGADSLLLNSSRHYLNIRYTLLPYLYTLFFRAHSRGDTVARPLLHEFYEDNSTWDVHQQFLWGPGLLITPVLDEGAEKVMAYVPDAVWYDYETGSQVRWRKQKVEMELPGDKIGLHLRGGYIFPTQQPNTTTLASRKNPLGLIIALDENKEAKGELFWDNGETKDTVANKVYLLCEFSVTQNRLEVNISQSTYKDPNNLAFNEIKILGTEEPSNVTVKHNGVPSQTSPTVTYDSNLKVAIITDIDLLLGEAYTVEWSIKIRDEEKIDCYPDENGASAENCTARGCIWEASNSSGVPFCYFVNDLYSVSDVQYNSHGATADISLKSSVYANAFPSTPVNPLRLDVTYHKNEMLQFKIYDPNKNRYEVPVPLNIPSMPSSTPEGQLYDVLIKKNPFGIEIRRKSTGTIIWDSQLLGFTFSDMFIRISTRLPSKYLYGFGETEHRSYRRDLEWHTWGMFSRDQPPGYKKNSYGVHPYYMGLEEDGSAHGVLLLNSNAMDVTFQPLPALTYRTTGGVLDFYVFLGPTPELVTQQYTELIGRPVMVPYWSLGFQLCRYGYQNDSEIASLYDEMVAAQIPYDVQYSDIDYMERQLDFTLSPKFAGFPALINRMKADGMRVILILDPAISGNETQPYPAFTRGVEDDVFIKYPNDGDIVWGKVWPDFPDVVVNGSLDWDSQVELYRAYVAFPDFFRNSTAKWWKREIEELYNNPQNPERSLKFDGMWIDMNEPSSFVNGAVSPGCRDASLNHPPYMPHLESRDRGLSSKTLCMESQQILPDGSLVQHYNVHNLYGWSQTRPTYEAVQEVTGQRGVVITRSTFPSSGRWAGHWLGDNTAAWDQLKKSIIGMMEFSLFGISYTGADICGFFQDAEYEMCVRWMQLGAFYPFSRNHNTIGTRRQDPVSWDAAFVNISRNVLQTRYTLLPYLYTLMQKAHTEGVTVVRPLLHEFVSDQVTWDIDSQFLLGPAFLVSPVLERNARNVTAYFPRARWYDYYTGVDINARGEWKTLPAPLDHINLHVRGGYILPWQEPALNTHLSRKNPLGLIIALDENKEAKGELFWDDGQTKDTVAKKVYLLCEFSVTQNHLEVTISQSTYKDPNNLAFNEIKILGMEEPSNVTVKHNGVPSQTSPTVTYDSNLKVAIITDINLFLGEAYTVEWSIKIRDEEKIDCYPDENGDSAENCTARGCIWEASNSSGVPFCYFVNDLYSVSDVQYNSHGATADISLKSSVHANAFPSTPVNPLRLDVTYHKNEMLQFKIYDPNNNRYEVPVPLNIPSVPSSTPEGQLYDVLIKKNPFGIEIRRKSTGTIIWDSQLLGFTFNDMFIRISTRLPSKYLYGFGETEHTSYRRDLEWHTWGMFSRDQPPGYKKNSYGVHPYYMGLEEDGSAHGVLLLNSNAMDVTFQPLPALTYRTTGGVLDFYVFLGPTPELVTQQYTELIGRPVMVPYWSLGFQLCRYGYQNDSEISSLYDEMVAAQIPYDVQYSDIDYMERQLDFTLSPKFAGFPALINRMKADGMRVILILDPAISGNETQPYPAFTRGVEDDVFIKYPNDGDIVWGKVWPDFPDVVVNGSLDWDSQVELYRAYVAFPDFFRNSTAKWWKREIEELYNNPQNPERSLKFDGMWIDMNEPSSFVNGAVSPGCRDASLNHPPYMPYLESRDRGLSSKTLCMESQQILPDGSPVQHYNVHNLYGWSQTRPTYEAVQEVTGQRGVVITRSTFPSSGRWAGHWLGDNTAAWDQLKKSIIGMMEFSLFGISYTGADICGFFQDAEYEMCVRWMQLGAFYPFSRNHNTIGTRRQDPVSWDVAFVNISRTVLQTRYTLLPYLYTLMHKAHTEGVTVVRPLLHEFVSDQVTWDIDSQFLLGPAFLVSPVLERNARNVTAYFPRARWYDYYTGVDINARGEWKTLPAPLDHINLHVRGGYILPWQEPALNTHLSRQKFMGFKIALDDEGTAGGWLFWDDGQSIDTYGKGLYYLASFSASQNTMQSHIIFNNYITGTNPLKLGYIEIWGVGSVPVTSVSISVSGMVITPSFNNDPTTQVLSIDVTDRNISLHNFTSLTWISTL

Assays:
[1] = molecular target: Glycogen debranching enzyme (Homo sapiens, UniProt P35573); assay: Inhibition of glycogen glycogen de-branching enzyme by HPLC
[2] = molecular target: Maltase-glucoamylase (Homo sapiens, UniProt O43451); assay: Inhibition of maltase by HPLC
[3] = molecular target: Lysosomal alpha-glucosidase (Homo sapiens, UniProt P10253); assay: Inhibition of lysosomal alpha-glucosidase by HPLC

Row | IC50 [1] | IC50 [2] | IC50 [3] | SMILES
1 | > 100 µM | – | – | CCCCN1C[C@H](O)[C@@H](O)[C@H](O)[C@@H]1CO
2 | – | 1000 µM | > 1000 µM | OC[C@H]1[C@@H](O)[C@H](O)[C@@H](O)CN1CCCCCOCC12CC3CC(CC(C3)C1)C2
3 | – | 15 µM | – | OC[C@@H]1[C@H](O)[C@H](O)[C@@H](O)CN1CCCCCOCC12CC3CC(CC(C3)C1)C2
4 | > 100 µM | – | – | CCCCN1C[C@H](O)[C@@H](O)[C@@H](O)[C@@H]1CO
5 | – | > 1000 µM | 500 µM | OC[C@H]1[C@H](O)[C@H](O)[C@@H](O)CN1CCCCCOCC12CC3CC(CC(C3)C1)C2
6 | – | 4 µM | – | OC[C@@H]1[C@@H](O)[C@H](O)[C@@H](O)CN1CCCCCOCC12CC3CC(CC(C3)C1)C2
